This assay has as its target Adenosine receptor A2a (Homo sapiens, UniProt P29274). The assay is described as follows: Displacement of [3H]CGS21680 from recombinant human A2A adenosine receptor expressed in HEK293 cells at 10 uM incubated for 60 mins by liquid scintillation counting method relative to control. The format is cell-based.

`CNc1ncnc2c1ncn2[C@@H]1SC[C@@H](N)[C@H]1O`: the inhibition (usually how much of the control response was suppressed) is 20%.

For the origin of these results see ChEMBL document CHEMBL5030536, “Subtle Chemical Changes Cross the Boundary between Agonist and Antagonist: New A3 Adenosine Receptor Homology Models and Structural Network Analysis Can Predict This Boundary” (J Med Chem, 2021).
